Patent US12507703B2, “Methods, devices and compositions for preserving human milk” (The Trustees of Princeton University, priority 2023, dated 2025)

Test system: lipase
Assay: Lipase/lipolysis assay (EnzChek Lipase Substrate, quenched BODIPY-fatty acid conjugate) on stored human milk; also: test concentration or dose not given here
Settings: stored 1 week at −20° C.
[1] = Food-Sourced Compound Library compound added to fresh human milk, thawed at room temperature, RFU <400 considered a hit
[2] = compound added to fresh human milk, thawed at room temperature, RFU <400 considered a hit
[3] = Food Additive Library compound added to fresh human milk, thawed at room temperature, RFU of <400 considered a hit
[4] = Biolog PM1 compound added to fresh human milk, RFU <400 = hit
[5] = Biolog PM2a compound added to fresh human milk, RFU <400 = hit
[6] = Biolog PM5 compound added to fresh human milk, RFU <400 = hit

| Compound | Lipase (RFU) [1] [RFU] | Lipase (RFU) [2] [RFU] | Lipase (RFU) [3] [RFU] | other results |
| --- | --- | --- | --- | --- |
| NCCOP(=O)(O)O [Phosphorylethanolamine] | 919.5627 | – | – | – |
| C#C[C@]1(O)CC[C@H]2[C@@H]3CCC4=CC(=O)CC[C@@H]4[C@H]3CC[C@@]21C [Norethindrone] | – | 979.6645 | – | – |
| CC(C)=CCC[C@](C)(O)[C@@H]1CC=C(C)CC1 [Levomenol] | – | 1094.539 | – | – |
| COC(=O)C=Cc1ccccc1 [Methyl cinnamate] | 1068.136 | – | 944.3607 | – |
| O=C(O)CC1CCCCC1 [Cyclohexaneacetic acid] | – | – | 958.7865 | – |
| CCCCCCCCCC(C)O (stereo not drawn) [Compound 2-Undecanol, 2-Undecanol] | – | – | 927.5465 | – |
| CC1=CC(=O)C(C(C)C)=CC1=O [Thymoquinone] | 1249.473 | – | – | – |
| CC1=C[C@H](O)CC(C)(C)[C@H]1/C=C/C(C)=C/C=C/C(C)=C/C=C/C=C(C)/C=C/C=C(C)/C=C/C1=C(C)C[C@@H](O)CC1(C)C [Lutein] | – | – | 823.7529 | – |
| C[C@H]1[C@H](C)CC[C@]2(C(=O)O)CC[C@]3(C)C(=CC[C@@H]4[C@@]5(C)CCC(=O)C(C)(C)[C@@H]5CC[C@]43C)[C@H]12 [Ursonic acid] | – | 960.3937 | – | – |
| CCOC(=O)CC(C)O (stereo not drawn) [Ethyl 3-hydroxybutyrate] | – | – | 923.9504 | – |
| CC(O)CCO (stereo not drawn) [1,3-Butanediol] | – | – | 1167.529 | – |
| O=C(O)CC(CC(=O)O)C(=O)O [Tricarballylic Acid] | – | 945.9568 | – | Lipase (RFU) [4]: 749.9547 RFU |
| C[N+](C)(C)C[C@H](O)CC(=O)[O-] [L-Carnitine] | – | – | 1039.732 | – |
| C=C(C)[C@@H]1CCC2=CC(=O)C[C@@H](C)[C@]2(C)C1 [Nootkatone] | – | 734.6904 | 1252.835 | – |
| C[C@]12CC[C@@H]3c4ccc(O)cc4CC[C@H]3[C@@H]1CC[C@H]2O [Alpha-Estradiol] | – | 903.9156 | – | – |
| CCC(=O)O [Propionic Acid] | – | – | – | Lipase (RFU) [4]: 949.5989 RFU |
| O=C(CO)[C@@H](O)[C@H](O)[C@H](O)COP(=O)(O)O [D-Fructose-6-Phosphate] | – | – | – | Lipase (RFU) [4]: 1197.545 RFU |
| Madecassoside | – | 934.5314 | – | – |
| Nc1nc2ncc([C@H](O)[C@H](O)CO)nc2c(=O)[nH]1 [Neopterin] | 959.9653 | – | – | – |
| OC[C@H]1O[C@@H](Oc2ccc(O)cc2)[C@H](O)[C@@H](O)[C@@H]1O [Arbutin] | 1259.869 | – | – | Lipase (RFU) [5]: 1141.749 RFU |
| COC(=O)Cc1c[nH]c2ccccc12 [Methyl 2-(1H-indol-3-yl)acetate] | – | 1039.458 | – | – |
| Cc1ncc(CO)c(C=O)c1O [Pyridoxal] | – | – | – | Lipase (RFU) [6]: 921.5601 RFU |
| N[C@@H](CC(=O)O)C(=O)O [(−)-Aspartic acid] | 911.1368 | – | – | – |
| CC12CCC(C1)C(C)(C)C2O (stereo not drawn) [Fenchyl alcohol] | – | 896.4423 | 1153.434 | – |
| N[C@@H](Cc1c[nH]cn1)C(=O)O [L-Histidine] | 782.5529 | – | 830.4988 | Lipase (RFU) [5]: 781.9838 RFU; Lipase (RFU) [6]: 980.1322 RFU |
| CC/C=C\CCO [cis-3-Hexen-1-ol] | 1097.087 | – | 854.7889 | – |
| NCCS(=O)(=O)O [Taurine] | 842.028 | – | 1067.763 | Lipase (RFU) (Biolog PM4 compound added to fresh human milk, RFU <400 = hit): 1004.117 RFU |
| COC(CC(C)=O)OC [4,4-Dimethoxy-2-butanone] | – | – | 1003.039 | – |
